IC50 data for 24 compounds are collected here from patent US20260384421A1, “NOVEL COMPOUNDS THAT CAN BE USED AS THERAPEUTIC AGENTS” (published 2026).

Read-outs that look alike come from different tables or passages of the source.

In test [1] the test system is MDA-MB-231 cells. Briefly: alamarBlue proliferation assay with MDA-MB-231 cells (glucose-free Leibovitz's L-15 medium). (Resazurin is reduced to fluorescent resorufin, in cell work by metabolically active cells.)
Test [2] has as its system A-549 cells. Briefly: alamarBlue proliferation assay with A-549 cells. The following applies: read-out: Activity on A-549: IC50, DMEM medium, 10% FBS.
Test [3] concerns TANQUE cells. Briefly: alamarBlue proliferation assay with TANQUE cells. The following applies: read-out: Activity on TANOUE: IC50, RPMI 1640 medium, 10% FBS.
In test [4] the test system is NB-4 cells. Description: alamarBlue proliferation assay with NB-4 cells. The following applies: read-out: Activity on NB-4: IC50, RPMI 1640 medium, 10% FBS.
The test system of test [5] is LL/2 cells. Briefly: alamarBlue proliferation assay with LL/2 cells. The following applies: read-out: Activity on LL/2: IC50; LL/2 murine Lewis lung carcinoma cells, DMEM medium, 10% FBS.
Test [6] deals with HCT-116 cells. Description: alamarBlue proliferation assay with HCT-116 cells. The following applies: read-out: Activity on HCT-116: IC50, McCoy's 5A medium, 10% FBS.
Test [7] has as its system BHY cells. Description: alamarBlue proliferation assay with BHY cells. The following applies: read-out: Activity on BHY: IC50, DMEM medium, 10% FBS.
Setting [8] is: read-out: Activity (MDA): antiproliferative activity on MDA-MB-231 cells, IC50 category, MDA-MB-231 cells cultivated in glucose-free Leibovitz's L-15 medium.
Where [9] appears, read: read-out: Activity on MDA-MB-231 (IC50), glucose-free Leibovitz's L-15, 10% FBS, day 5, alamarBlue.
[10] abbreviates: read-out: Activity (MDA), MDA-MB-231 cells, antiproliferative activity, class by IC50.

In the case of `CS(=O)(=O)c1ccc(CN2CCN(C(=O)c3ccc(Oc4ccc(C5CCC6(CC5)OCCO6)cc4CO)cc3)CC2)cc1`, the IC50 in test [1] (setting [8]) was less than 1000 nM; in test [1] (setting [9]), not above 200 nM; in test [2] it was not above 200 nM; in test [3], not above 200 nM; in test [4], not above 200 nM; in test [5], not above 1000 nM. Moreover, the IC50 in test [6] and in test [7] was not above 200 nM each time.
Consider `COC1CCC(c2ccc(Oc3ccc(C(=O)N4CCN(Cc5ccc(S(F)(F)(F)(F)F)cc5)CC4)cc3)c(CO)c2)CC1` (stereo not shown), for which the IC50 in test [1] (setting [10]) was less than 1000 nM; in test [1] (setting [9]), not above 200 nM; in test [2], not above 200 nM; in test [3], not above 200 nM; in test [4] it was not above 200 nM; in test [5], not above 200 nM. The IC50 in test [6] and in test [7] was not above 200 nM each time.
`COc1ccc(CN2CCN(C(=O)c3ccc(Oc4ccc(C5CCC(OC)CC5)cc4)cc3)CC2)cc1` (stereo not shown): the IC50 in test [1] (setting [10]) was less than 1000 nM; in test [1] (setting [9]), not above 200 nM; in test [2] it was not above 200 nM; in test [3], not above 200 nM; in test [4], not above 200 nM; in test [5] it was not above 5000 nM. Further, the figures for the IC50 in test [6] and in test [7] were not above 200 nM and not above 1000 nM, respectively.
As for `COc1ccc(CN2CCN(C(=O)c3ccc(Oc4ccc(C5CCC(OC)CC5)cc4CO)cc3)CC2)cc1` (stereo not shown), the IC50 is less than 1000 nM in test [1] (setting [10]); not above 200 nM in test [1] (setting [9]); not above 200 nM in test [2]; not above 200 nM in test [3]; not above 200 nM in test [4]; not above 200 nM in test [5]. The IC50 in test [6] and in test [7] was not above 200 nM in each case.
With `O=Cc1cc(C2CCC3(CC2)SCCCS3)ccc1Oc1ccc(C(=O)N2CCN(Cc3ccc(Cl)cc3)CC2)nc1`, the IC50 in test [1] (setting [9]), in test [2], in test [3], in test [4], in test [5] and in test [6] was not above 200 nM in each case. For the same compound, in test [7], the IC50 is not above 200 nM.
With `COC1CCC(c2ccc(Oc3ccc(C(=O)N4CCN(Cc5ccc(C(F)(F)F)cc5)CC4)nc3)c(CO)c2)CC1` (stereo not shown), the IC50 in test [1] (setting [10]) is less than 1000 nM; in test [1] (setting [9]), not above 200 nM; in test [2], not above 200 nM; in test [3], not above 200 nM; in test [4], not above 200 nM; in test [5], not above 200 nM. Also, the IC50 in test [6] and in test [7] was not above 200 nM each time.
As for `CN(C)C(=O)c1ccc(CN2CCN(C(=O)c3ccc(Oc4ccc(C5CCC6(CC5)OCCO6)cc4CO)cc3)CC2)cc1`, the IC50 in test [1] (setting [10]) was less than 1000 nM; in test [1] (setting [9]), not above 200 nM; in test [2] it was not above 200 nM; in test [3] it was not above 1000 nM; in test [4] it was not above 1000 nM; in test [5], not above 5000 nM. Further, the IC50 in test [6] and in test [7] was not above 1000 nM throughout.
Regarding `COCC1(COC)CCC(c2ccc(Oc3ccc(C(=O)N4CCN(Cc5ccc(OC)cc5)CC4)cc3)c(CO)c2)CC1`, the IC50 is less than 1000 nM in test [1] (setting [10]); not above 200 nM in test [1] (setting [9]); not above 200 nM in test [2]; not above 200 nM in test [3]; not above 200 nM in test [4]; not above 200 nM in test [5]. For the same compound, the IC50 in test [6] and in test [7] was not above 200 nM each time.
Regarding `COC1CCC(c2ccc(Oc3ccc(C(=O)N4CCN(Cc5ccc(C(F)(F)F)nc5)CC4)cc3)c(CO)c2)CC1` (stereo not shown), the IC50 in test [1] (setting [10]) was less than 1000 nM; in test [1] (setting [9]), not above 200 nM; in test [2], not above 200 nM; in test [3], not above 200 nM; in test [4], not above 200 nM; in test [5] it was not above 200 nM. Moreover, the IC50 in test [6] and in test [7] was not above 200 nM throughout.
As for `COC1CCC(c2ccc(Oc3ccc(C(=O)N4CCN(Cc5ccc(OCC(F)(F)F)cc5)CC4)cc3)c(CO)c2)CC1` (stereo not shown), the IC50 in test [1] (setting [10]) is less than 1000 nM; in test [1] (setting [9]), not above 200 nM; in test [2], not above 200 nM; in test [3], not above 200 nM; in test [4] it was not above 200 nM; in test [5], not above 200 nM. In addition, the IC50 in test [6] and in test [7] was not above 200 nM each time.
Turning to `O=C(c1ccc(Oc2ccc(C3CCC4(CC3)OCCO4)cc2CO)cc1)N1CCN(Cc2ccc(C(F)(F)F)nc2)CC1`, the IC50 in test [1] (setting [8]) was less than 1000 nM; in test [1] (setting [9]) it was not above 200 nM; in test [2] it was not above 200 nM; in test [3], not above 200 nM; in test [4], not above 200 nM; in test [5] it was not above 200 nM. For the same compound, the IC50 in test [6] and in test [7] was not above 200 nM each time.
Take `COc1ccc(CN2CCN(C(=O)c3ccc(Oc4ccc(C5CCC6(CC5)OCCO6)cc4CO)cc3)CC2)cn1`: the IC50 in test [1] (setting [8]) is less than 1000 nM; in test [1] (setting [9]), not above 200 nM; in test [2], not above 200 nM; in test [3], not above 200 nM; in test [4] it was not above 200 nM; in test [5], not above 1000 nM. The IC50 in test [6] and in test [7] was not above 200 nM throughout.
Turning to `O=C(c1ccc(Oc2ccc(C3CCC4(CCCC4)CC3)cc2CO)cc1)N1CCN(Cc2ccccc2)CC1`, the IC50 in test [1] (setting [9]) is not above 200 nM; in test [2], not above 200 nM; in test [3], not above 200 nM; in test [4], not above 200 nM; in test [5], not above 5000 nM; in test [6], not above 200 nM. Moreover, in test [7], the IC50 was not above 200 nM.
Regarding `COC1CCC(c2ccc(Oc3ccc(C(=O)N4CCN(Cc5cnc6ccccc6c5)CC4)nc3)c(CO)c2)CC1` (stereo not shown), the IC50 in test [1] (setting [10]) is less than 1000 nM; in test [1] (setting [9]), not above 200 nM; in test [2], not above 200 nM; in test [3], not above 200 nM; in test [4] it was not above 200 nM; in test [5], not above 200 nM. Besides, the IC50 in test [6] and in test [7] was not above 200 nM in each case.
As to `COC1CCC(c2ccc(Oc3ccc(C(=O)N4CCN(Cc5ccc6ccccc6c5)CC4)nc3)c(CO)c2)CC1` (stereo not shown), the IC50 in test [1] (setting [10]) was less than 1000 nM; in test [1] (setting [9]) it was not above 200 nM; in test [2], not above 200 nM; in test [3], not above 200 nM; in test [4] it was not above 200 nM; in test [5] it was not above 200 nM. Moreover, the IC50 in test [6] and in test [7] was not above 200 nM in each case.
`COC1CCC(c2ccc(Oc3ccc(C(=O)N4CCN(Cc5ccc(Cl)cn5)CC4)cc3)c(CO)c2)CC1` (stereo not shown): the IC50 in test [1] (setting [10]) is less than 1000 nM; in test [1] (setting [9]) it was not above 200 nM; in test [2], not above 200 nM; in test [3] it was not above 200 nM; in test [4] it was not above 200 nM; in test [5], not above 200 nM. The IC50 in test [6] and in test [7] was not above 200 nM each time.
Turning to `O=C(c1ccc(Oc2ccc(C3CCC4(CC3)OCCO4)cc2CO)cc1)N1CCN(Cc2ccsc2)CC1`, the IC50 in test [1] (setting [8]) was less than 1000 nM; in test [1] (setting [9]) it was not above 200 nM; in test [2], not above 200 nM; in test [3] it was not above 200 nM; in test [4] it was not above 200 nM; in test [5], not above 5000 nM. Further, the IC50 in test [6] and in test [7] was not above 200 nM each time.
Take `O=C(c1ccc(Oc2ccc(C3CCC4(CC3)OCCO4)cc2CO)cc1)N1CCN(Cc2ccc(Cl)cc2)CC1`: the IC50 was less than 1000 nM in test [1] (setting [8]); not above 200 nM in test [1] (setting [9]); not above 200 nM in test [2]; not above 200 nM in test [3]; not above 200 nM in test [4]; not above 200 nM in test [5]. In addition, the IC50 in test [6] and in test [7] was not above 200 nM each time.
Regarding `CN(C)S(=O)(=O)c1ccc(CN2CCN(C(=O)c3ccc(Oc4ccc(C5CCC6(CC5)OCCO6)cc4CO)cc3)CC2)cc1`, the IC50 in test [1] (setting [8]) is less than 1000 nM; in test [1] (setting [9]), not above 200 nM; in test [2], not above 200 nM; in test [3], not above 200 nM; in test [4], not above 200 nM; in test [5], not above 200 nM. Moreover, the IC50 in test [6] and in test [7] was not above 200 nM throughout.
With `O=C(c1ccc(Oc2ccc(C3CCC4(CC3)OCCO4)cc2CO)cc1)N1CCN(Cc2ccc3ccccc3c2)CC1`, the figures for the IC50 in test [1] (setting [8]) and in test [1] (setting [9]) were less than 1000 nM and not above 200 nM, respectively.
For the compound `O=C(c1ccc(Oc2ccc(C3CCCCC3)cc2CO)cn1)N1CCN(Cc2ccc(OC(F)(F)F)cc2)CC1`, the IC50 in test [2] was not above 200 nM; in test [3] it was not above 200 nM; in test [4], not above 200 nM; in test [5], not above 1000 nM; in test [6] it was not above 200 nM; in test [7] it was not above 200 nM.
On to `O=C(c1ccc(Oc2ccc(C3CCCCC3)cc2CO)cc1)N1CCN(Cc2ccc(OC(F)(F)F)cc2)CC1`, for which the IC50 in test [2], in test [3], in test [4], in test [5], in test [6] and in test [7] was not above 200 nM in each case.
For `COc1cc(C2CCC(OC)CC2)ccc1Oc1ccc(C(=O)N2CCN(Cc3ccc(Cl)cc3)CC2)cc1` (stereo not shown), the IC50 was not above 200 nM in test [2]; not above 200 nM in test [3]; not above 1000 nM in test [4]; not above 5000 nM in test [5]; not above 200 nM in test [6]; not above 200 nM in test [7].
Take `COc1ccc(CN2CCN(C(=O)c3ccc(Oc4ccc(C5CCC(OC)CC5)cc4O)cn3)CC2)cc1` (stereo not shown): the IC50 was not above 200 nM in test [2]; not above 1000 nM in test [3]; not above 1000 nM in test [4]; not above 1000 nM in test [6]; not above 1000 nM in test [7].
